Results: ChEMBL document CHEMBL5727089, “7-beta-alkyl analogs of orvinols” (2018)

Chains of the proteins cited; added tags and fusions are not shown.
UniProt P41145, whole entry: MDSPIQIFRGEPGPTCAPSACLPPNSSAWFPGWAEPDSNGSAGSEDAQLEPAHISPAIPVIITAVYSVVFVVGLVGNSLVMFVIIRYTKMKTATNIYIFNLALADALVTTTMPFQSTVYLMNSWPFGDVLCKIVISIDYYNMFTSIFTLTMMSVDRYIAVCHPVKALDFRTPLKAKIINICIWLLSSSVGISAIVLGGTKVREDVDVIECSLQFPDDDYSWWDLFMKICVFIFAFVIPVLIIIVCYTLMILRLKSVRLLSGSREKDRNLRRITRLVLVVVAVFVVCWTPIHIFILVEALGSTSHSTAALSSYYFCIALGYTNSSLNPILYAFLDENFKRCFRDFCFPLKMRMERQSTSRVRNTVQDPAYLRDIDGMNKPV
UniProt P35372, whole entry: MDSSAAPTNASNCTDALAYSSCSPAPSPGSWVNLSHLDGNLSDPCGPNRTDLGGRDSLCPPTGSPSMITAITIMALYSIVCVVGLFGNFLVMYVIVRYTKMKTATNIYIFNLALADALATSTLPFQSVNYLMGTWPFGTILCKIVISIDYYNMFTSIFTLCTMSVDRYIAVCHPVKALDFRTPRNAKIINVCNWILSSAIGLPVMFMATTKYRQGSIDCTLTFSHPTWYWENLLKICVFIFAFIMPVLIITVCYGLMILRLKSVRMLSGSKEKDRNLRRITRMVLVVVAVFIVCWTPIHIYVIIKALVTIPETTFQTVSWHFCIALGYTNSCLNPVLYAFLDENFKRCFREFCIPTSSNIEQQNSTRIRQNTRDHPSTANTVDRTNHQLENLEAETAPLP

Tests used:
[1] = molecular target: Kappa-type opioid receptor (Homo sapiens, UniProt P41145); assay: Receptor Binding Assay : κ-Opioid: Receptor Binding Assay Procedures: Membranes from HEK-293, CHO or U-2 OS cells expressing the recombinant human kappa opioid receptor (κ) were prepared by lysing cells in ice cold hypotonic buffer (2.5 mM MgCl2, 50 mM HEPES, pH 7.4) (10 mL/10 cm dish) followed by homogenization with a tissue grinder/Teflon pestle. Membranes from a cell line naturally expressing k
Mu-type opioid receptor = Mu-type opioid receptor (Homo sapiens, UniProt P35372); assay: Receptor Binding Assay : μ-Opioid:Radioligand dose-displacement binding assays for μ-opioid receptors used 0.3 nM [3H]-diprenorphine (Perkin Elmer, Shelton, Conn.), with […] membrane protein/well in a final volume of 500 μl binding buffer (10 mM MgCl2, 1 mM EDTA, 5% DMSO, 50 mM HEPES, pH 7.4). Reactions were carried out in the absence or presence of increasing concentrations of unlabeled naloxone

Row | Compound | EC50 [1] [nM] | EC50 (Mu-type opioid receptor) [nM]
1 | COC12CC[C@@]3(C[C@]1(C)COCc1ccoc1)[C@H]1Cc4ccc(O)c5c4[C@@]3(CCN1CC1CC1)[C@H]2O5 | 0.037 | –
2 | COC12CC[C@@]3(C[C@]1(C)COCc1ccccc1)[C@H]1Cc4ccc(O)c5c4[C@@]3(CCN1CC1CC1)[C@H]2O5 | – | 0.55
3 | COC12CC[C@@]3(C[C@]1(C)CNCc1ccccc1)[C@H]1Cc4ccc(O)c5c4[C@@]3(CCN1CC1CC1)[C@H]2O5 | – | 3.39
